{"sequences": {"note": "Chains of the proteins cited; added tags and fusions are not shown.", "UniProt P21397, whole entry": "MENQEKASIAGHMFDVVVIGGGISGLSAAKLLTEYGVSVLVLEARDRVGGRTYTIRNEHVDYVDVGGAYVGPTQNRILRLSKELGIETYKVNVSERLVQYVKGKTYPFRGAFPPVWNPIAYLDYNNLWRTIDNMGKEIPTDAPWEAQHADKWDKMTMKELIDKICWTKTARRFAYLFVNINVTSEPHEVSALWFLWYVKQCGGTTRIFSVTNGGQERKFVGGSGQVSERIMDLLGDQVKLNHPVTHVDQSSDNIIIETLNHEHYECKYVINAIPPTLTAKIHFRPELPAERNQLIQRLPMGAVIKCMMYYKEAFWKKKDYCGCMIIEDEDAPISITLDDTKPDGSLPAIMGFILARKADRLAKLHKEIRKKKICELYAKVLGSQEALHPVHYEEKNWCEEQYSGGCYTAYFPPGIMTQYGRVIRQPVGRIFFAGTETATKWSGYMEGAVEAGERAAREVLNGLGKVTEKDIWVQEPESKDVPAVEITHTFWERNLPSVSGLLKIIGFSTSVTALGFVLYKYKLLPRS", "UniProt P27338, whole entry": "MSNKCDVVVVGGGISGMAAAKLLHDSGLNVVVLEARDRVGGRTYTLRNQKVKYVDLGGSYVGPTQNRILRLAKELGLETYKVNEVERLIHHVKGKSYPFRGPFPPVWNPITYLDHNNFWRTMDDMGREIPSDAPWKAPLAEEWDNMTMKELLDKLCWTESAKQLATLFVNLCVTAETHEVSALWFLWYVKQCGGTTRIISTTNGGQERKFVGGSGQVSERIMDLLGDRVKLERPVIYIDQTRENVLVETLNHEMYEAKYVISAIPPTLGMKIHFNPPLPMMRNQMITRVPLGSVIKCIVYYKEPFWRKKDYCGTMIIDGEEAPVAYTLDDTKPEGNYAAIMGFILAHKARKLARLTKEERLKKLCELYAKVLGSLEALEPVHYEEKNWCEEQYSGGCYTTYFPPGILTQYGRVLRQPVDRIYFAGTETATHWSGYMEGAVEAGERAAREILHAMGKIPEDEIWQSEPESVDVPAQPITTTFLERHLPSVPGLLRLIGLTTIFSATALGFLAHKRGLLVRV"}, "source": "ChEMBL document CHEMBL1124928", "about": "“Inhibition of monoamine oxidases A and B by simple isoquinoline alkaloids: racemic and optically active 1,2,3,4-tetrahydro-, 3,4-dihydro-, and fully aromatic isoquinolines” (J Med Chem, 1990)", "key": {"[1]": {"biological_target": "Amine oxidase [flavin-containing] A (Homo sapiens, UniProt P21397)"}, "[2]": {"biological_target": "Amine oxidase [flavin-containing] B (Homo sapiens, UniProt P27338)", "assay": "Compounds were tested for inhibition against human liver Monoamine oxidase B (competitive inhibition was observed)"}}, "data": [{"compound": "c1ccc2c(c1)CCNC2", "note": "[1,2,3,4-TETRAHYDROISOQUINOLINE]", "values": [{"measurement": "Ki", "setting": "[1]", "value": 210, "unit": "µM"}, {"measurement": "Ki", "setting": "[2]", "value": 15, "unit": "µM"}]}]}
